Key:
[1] = biological target: T1, nucleolin (Homo sapiens, UniProt P19338); type: binding
T1 construct: [35S]Met/Cys-labeled full-length nucleolin, N-terminal and the C-terminal parts containing amino acids 1-707, 1-308, and 309-707, respectively; made in house; host or cells: in vitro transcription/translation, rabbit reticulocyte lysate system

Sequences of proteins named here, by UniProt entry; tags and fusion partners are left off. Residues count along the entry.
UniProt P19338, 309-710: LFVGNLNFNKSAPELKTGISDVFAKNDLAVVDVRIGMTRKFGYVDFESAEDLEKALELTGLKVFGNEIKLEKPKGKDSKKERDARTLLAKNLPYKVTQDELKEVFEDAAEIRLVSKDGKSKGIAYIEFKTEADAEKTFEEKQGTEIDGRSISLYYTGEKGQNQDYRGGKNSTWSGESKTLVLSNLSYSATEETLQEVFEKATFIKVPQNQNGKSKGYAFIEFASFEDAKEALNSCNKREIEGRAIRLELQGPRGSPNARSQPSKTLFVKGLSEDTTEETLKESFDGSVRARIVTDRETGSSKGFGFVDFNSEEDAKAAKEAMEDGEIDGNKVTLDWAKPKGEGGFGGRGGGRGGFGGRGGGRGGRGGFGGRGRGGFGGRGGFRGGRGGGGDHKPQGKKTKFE
UniProt P19338, 1-308: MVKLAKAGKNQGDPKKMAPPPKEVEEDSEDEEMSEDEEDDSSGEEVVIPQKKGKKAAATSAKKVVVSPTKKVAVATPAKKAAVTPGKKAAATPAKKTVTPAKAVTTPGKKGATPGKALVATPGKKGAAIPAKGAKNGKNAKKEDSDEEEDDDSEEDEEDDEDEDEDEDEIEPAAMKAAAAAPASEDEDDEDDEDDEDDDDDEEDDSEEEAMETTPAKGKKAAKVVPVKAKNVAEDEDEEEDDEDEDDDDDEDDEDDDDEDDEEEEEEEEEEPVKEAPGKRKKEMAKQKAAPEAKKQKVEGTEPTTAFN
UniProt P19338, whole entry: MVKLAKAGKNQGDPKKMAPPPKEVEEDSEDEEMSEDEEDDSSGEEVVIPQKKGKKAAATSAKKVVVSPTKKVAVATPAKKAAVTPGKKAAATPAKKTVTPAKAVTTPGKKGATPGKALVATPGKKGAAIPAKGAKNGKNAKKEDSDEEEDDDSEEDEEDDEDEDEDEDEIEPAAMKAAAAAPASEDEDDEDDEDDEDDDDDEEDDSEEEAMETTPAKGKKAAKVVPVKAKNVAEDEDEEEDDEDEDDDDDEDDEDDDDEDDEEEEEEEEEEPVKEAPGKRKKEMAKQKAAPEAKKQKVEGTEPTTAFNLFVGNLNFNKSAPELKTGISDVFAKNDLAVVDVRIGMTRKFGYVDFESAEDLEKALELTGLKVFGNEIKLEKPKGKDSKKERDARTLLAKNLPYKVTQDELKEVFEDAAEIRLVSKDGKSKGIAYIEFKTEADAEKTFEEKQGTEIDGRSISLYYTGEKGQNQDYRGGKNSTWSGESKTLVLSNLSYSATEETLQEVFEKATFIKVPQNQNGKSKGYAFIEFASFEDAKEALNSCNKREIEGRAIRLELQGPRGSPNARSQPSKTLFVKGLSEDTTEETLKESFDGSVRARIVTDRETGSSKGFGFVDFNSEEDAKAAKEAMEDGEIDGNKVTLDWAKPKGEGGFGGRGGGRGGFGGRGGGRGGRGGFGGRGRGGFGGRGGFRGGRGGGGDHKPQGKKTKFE

[2] = biological target: T2, cell-surface expressed nucleolin (Homo sapiens, UniProt P19338); assay: cell-based
T2 construct: endogenous in cells; host or cells: HeLa P4 cells

SMILES | binding of HB-19 to C-terminal part of nucleolin [1] | binding of HB-19 to N-terminal part of nucleolin [1] | binding of HB-19 to full-length nucleolin [1] | IC50 [2]
CCCC[C@H](NC(=O)[C@H](CCCCNC(=O)[C@H](CCCNC(=N)N)NC(=O)[C@@H]1CCCN1C[C@@H](N)CCCCN)NC(=O)[C@H](CCC(=O)O)NC(=O)[C@H](CCCCNC(=O)[C@H](CCCNC(=N)N)NC(=O)[C@@H]1CCCN1C[C@@H](N)CCCCN)NC(=O)[C@@H]1CCCN1C(=O)CNC(=O)[C@H](CCCCNC(=O)[C@H](CCCNC(=N)N)NC(=O)[C@@H]1CCCN1C[C@@H](N)CCCCN)NC(=O)[C@H](CCCCN)NC(=O)[C@H](CCCCNC(=O)[C@H](CCCNC(=N)N)NC(=O)[C@@H]1CCCN1C[C@@H](N)CCCCN)NC(=O)[C@H](CCCNC(=N)N)NC(=O)[C@@H]1CCCN1C[C@@H](N)CCCCN)C(N)=O [HB-19, 5[Lys (CH2N)Pro-Arg]-template-assembled synthetic peptide] | bound efficiently | did not bind at all | found to bind | –
CC(=O)N[C@@H](CCCCNC(=O)[C@H](CCCNC(=N)N)NC(=O)[C@@H]1CCCN1C[C@@H](N)CCCCN)C(=O)NC(C)(C)C(=O)NCC(=O)N[C@@H](CCCCNC(=O)[C@H](CCCNC(=N)N)NC(=O)[C@@H]1CCCN1C[C@@H](N)CCCCN)C(=O)NC(C)(C)C(=O)NCC(=O)N[C@@H](CCCCNC(=O)[C@H](CCCNC(=N)N)NC(=O)[C@@H]1CCCN1C[C@@H](N)CCCCN)C(=O)NC(C)(C)C(=O)NCC(=O)N[C@@H](CCCCNC(=O)[C@H](CCCNC(=N)N)NC(=O)[C@@H]1CCCN1C[C@@H](N)CCCCN)C(=O)NC(C)(C)C(=O)NCC(=O)N[C@@H](CCCCNC(=O)[C@H](CCCNC(=N)N)NC(=O)[C@@H]1CCCN1C[C@@H](N)CCCCN)C(=O)NC(C)(C)C(=O)NCC(N)=O [Nucant 3] | – | – | – | 100 to 200 nM
CC(=O)N[C@@H](CCCCNC(=O)[C@H](CCCNC(=N)N)NC(=O)[C@@H]1CCCN1C[C@@H](N)CCCCN)C(=O)NC(C)(C)C(=O)NCC(=O)N[C@@H](CCCCNC(=O)[C@H](CCCNC(=N)N)NC(=O)[C@@H]1CCCN1C[C@@H](N)CCCCN)C(=O)NC(C)(C)C(=O)NCC(=O)N[C@@H](CCCCNC(=O)[C@H](CCCNC(=N)N)NC(=O)[C@@H]1CCCN1C[C@@H](N)CCCCN)C(=O)NC(C)(C)C(=O)NCC(=O)N[C@@H](CCCCNC(=O)[C@H](CCCNC(=N)N)NC(=O)[C@@H]1CCCN1C[C@@H](N)CCCCN)C(=O)NC(C)(C)C(=O)NCC(=O)N[C@@H](CCCCNC(=O)[C@H](CCCNC(=N)N)NC(=O)[C@@H]1CCCN1C[C@@H](N)CCCCN)C(=O)NC(C)(C)C(=O)NCC(=O)N[C@@H](CCCCNC(=O)[C@H](CCCNC(=N)N)NC(=O)[C@@H]1CCCN1C[C@@H](N)CCCCN)C(=O)NC(C)(C)C(=O)NCC(N)=O [Nucant 6] | – | – | – | < 100 nM

From patent EP2033655B1 (priority 2007, dated 2009)
